By UniProt entry, the sequences of proteins in these tests, tags left out.
UniProt P43116, whole entry: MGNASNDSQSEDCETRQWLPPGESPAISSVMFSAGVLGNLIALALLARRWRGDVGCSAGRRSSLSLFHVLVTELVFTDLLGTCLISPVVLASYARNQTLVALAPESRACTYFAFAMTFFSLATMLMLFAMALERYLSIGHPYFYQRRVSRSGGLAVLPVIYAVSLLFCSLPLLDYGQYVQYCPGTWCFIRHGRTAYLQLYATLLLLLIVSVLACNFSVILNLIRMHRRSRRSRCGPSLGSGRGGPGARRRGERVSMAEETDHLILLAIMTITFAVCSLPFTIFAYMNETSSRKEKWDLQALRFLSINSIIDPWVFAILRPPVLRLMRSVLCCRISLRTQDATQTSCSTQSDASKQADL
UniProt P35408, whole entry: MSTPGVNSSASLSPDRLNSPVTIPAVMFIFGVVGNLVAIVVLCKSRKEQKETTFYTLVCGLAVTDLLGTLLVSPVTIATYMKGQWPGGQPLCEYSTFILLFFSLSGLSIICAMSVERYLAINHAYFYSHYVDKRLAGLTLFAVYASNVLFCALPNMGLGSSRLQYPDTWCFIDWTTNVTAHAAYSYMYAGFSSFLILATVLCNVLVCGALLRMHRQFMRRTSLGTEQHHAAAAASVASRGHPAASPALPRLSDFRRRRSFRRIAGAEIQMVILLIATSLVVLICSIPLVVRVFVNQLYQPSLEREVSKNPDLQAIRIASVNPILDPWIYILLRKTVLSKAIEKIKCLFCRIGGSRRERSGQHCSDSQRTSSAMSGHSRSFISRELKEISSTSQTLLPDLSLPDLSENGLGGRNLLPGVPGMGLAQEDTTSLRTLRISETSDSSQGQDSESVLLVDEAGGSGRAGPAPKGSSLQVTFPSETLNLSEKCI
UniProt P34995, whole entry: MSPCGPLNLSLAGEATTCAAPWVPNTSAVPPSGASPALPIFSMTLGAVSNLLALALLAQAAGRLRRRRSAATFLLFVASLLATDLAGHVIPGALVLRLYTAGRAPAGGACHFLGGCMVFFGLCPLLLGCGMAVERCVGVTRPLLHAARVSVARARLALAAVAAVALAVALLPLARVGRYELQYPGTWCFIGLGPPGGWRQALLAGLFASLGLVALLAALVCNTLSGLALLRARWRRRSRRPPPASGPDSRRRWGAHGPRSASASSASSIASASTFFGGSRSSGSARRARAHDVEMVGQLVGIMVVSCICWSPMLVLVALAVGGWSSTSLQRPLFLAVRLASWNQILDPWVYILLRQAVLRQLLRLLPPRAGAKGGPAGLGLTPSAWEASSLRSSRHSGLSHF
UniProt P43115, whole entry: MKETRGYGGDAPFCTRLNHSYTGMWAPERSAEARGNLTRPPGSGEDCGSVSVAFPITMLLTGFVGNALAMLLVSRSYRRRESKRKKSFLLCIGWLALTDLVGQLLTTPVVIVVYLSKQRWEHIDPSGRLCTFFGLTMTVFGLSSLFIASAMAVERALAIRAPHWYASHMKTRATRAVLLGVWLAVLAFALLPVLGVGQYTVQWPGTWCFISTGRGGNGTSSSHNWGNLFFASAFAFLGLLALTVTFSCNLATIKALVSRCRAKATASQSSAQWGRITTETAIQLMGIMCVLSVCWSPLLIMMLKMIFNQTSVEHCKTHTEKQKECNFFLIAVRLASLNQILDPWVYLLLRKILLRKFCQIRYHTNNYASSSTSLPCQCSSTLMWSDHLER
UniProt Q13258, whole entry: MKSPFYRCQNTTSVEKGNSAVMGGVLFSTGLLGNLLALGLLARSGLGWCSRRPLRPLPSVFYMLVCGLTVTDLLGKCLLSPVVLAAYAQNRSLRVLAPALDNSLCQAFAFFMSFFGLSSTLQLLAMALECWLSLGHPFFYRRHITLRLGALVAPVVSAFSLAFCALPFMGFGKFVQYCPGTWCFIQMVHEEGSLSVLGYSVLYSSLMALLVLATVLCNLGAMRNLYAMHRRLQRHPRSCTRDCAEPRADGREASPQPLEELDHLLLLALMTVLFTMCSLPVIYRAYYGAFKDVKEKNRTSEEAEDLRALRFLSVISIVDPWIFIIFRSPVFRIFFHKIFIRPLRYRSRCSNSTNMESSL

In patent US9765065B2, “Therapeutic substituted cyclopentanes” (ALLERGAN, INC., priority 2007, dated 2017):

Columns and labels:
[1] = target: T1, EP2 (Homo sapiens, UniProt P43116); assay: EP2 flipr; settings: read-out: EP2 data flipr EC50
Excerpt: (§1) U.S. patent application Ser. No. 11/553,143, filed on Oct. 26, 2006, incorporated by reference herein in its entirety, describes the methods used to obtain the in vitro data in the table below.

[2] = target: T1, EP2; assay: EP2 cAMP; settings: read-out: EP2 data cAMP EC50
Excerpt: as §1

[3] = target: T1, EP2; assay: EP2 binding Ki; settings: read-out: EP2 data Ki
Excerpt: as §1

[4] = target: T2, EP4 (Homo sapiens, UniProt P35408); assay: EP4 flipr; settings: read-out: EP4 data flipr EC50
Excerpt: as §1

[5] = target: T2, EP4; assay: EP4 binding Ki; settings: read-out: EP4 data Ki
Excerpt: as §1

[6] = target: hEP1 (Homo sapiens, UniProt P34995); assay: Other receptors hEP1; settings: read-out: Other Receptors (EC50 in nM) hEP1
Excerpt: as §1

[7] = target: hEP3A (Homo sapiens, UniProt P43115); assay: Other receptors hEP3A; settings: read-out: Other Receptors (EC50 in nM) hEP3A
Excerpt: as §1

[8] = target: hDP (Homo sapiens, UniProt Q13258); assay: Other receptors hDP; settings: read-out: Other Receptors (EC50 in nM) hDP
Excerpt: as §1

O=C(O)c1ccc(CCC[C@@H]2[C@@H](C#Cc3ccccc3)[C@H](O)C[C@H]2Cl)s1
EC50 [1]: 221 nM | EC50 [2]: 0.03 nM | Ki [3]: 0.5 nM | EC50 [4]: 630 nM | Ki [5]: 114 nM | EC50 [6]: > 10000 nM | EC50 [7]: 4030 nM | EC50 [8]: > 10000 nM
